# Assay results from US8729279B2, “Agent for promoting osteoblast differentiation, pharmaceutical composition for promoting bone formation, and food for special dietary use containing auraptene analog as active ingredient” (Erina Co., Inc., priority 2010, dated 2014).
# Experiments:
# [1] = test system: MC3T3-E1 cells; assay: Comparison with BMP-2 and effect of BMP signal inhibitors on ALP activity; format: cell-based, mouse; details: auraptene 30 μM or BMP-2 25 ng/ml, 6 days
# Method: In addition, the activity of alkaline phosphatase (ALP), a marker enzyme of initial osteoblast differentiation, was measured by the following method. After incubation, the cells were fixed with cold methanol, and the dishes were dried. 100 μl of buffer of pH 8.5 containing 2 mM magnesium chloride and 100 mM Tris-HCl, with 6.7 mM p-nitrophenylphosphate as a substrate, was dispensed in each well and allowed to react at 37° C. for 30 minutes. Then, 100 μl of 0.1 N sodium hydroxide was added to terminate the reaction, followed by measurement with a plate reader of the absorbance at 405 nm, which was determined to be the ALP activity. The value was calculated by taking the control as 100. […]
# BMP-2 and auraptene were added at 25 ng/ml and 30 μM, respectively. Upon the addition of the sample, the cells were cultured for 6 days in the presence or absence of 10 ng/ml Noggin, a BMP inhibitor, or 1 μM Dorsomorphin, an inhibitor of type I BMP receptor (ALK) (the above concentrations are the final concentrations), and the ALP activities were measured in the same manner as above. […]
# [2] = test system: MC3T3-E1 cells; assay: Expression of genes related to osteoblast differentiation, real-time RT-PCR; format: cell-based, mouse; details: auraptene 30 μM or BMP-2 50 ng/ml, compared with control
# Method: The effects on the expression of various genes related to osteoblast differentiation were analyzed using the real-time RT-PCR method.
# MC3T3-E1 cells were plated in each well of a 6-well plate (Greiner) at a concentration of 1.5×10^5 cells/well and cultured in the same manner as above. After reaching confluent, the culture medium was replaced with the culture medium containing auraptene (30 μM) or BMP-2 (50 ng/ml) and cultured for 0 to 14 days. After incubation, the culture medium was removed and the cells were washed with PBS. Thereafter, “ISOGEN” (trade name, Wako Pure Chemical Industries, Ltd.) was added in an amount of 1 ml/well and the cells were collected. RNA purification was conducted according to the protocol described in the package insert of “ISOGEN”.
# Reverse transcription was performed using “PrimeScript RT-PCR Kit” (trade name, TaKaRa) with 2 μg of purified RNA according to the protocol described in the package insert, thereby synthesizing the cDNA sample.
# Real-time PCR was performed using “FastStart Universal SYBR Green Master (Rox)” (trade name, Roche) according to the protocol described in the package insert under the following conditions: incubation at 50° C. for 2 min and at 95° C. for 10 min, followed by 50 cycles of 15 sec at 95° C. and 1 min at 60° C. Data were analyzed with “ABI PRISM 7300 sequence detection system” (trade name, Applied Biosystems).
# Primers used were as described in the following Table 2.
# Data analysis was performed as follows using β-actin as an endogenous control gene by the comparative Ct method.
# Δ Ct=(Ct of target gene)−(Ct of endogenous control gene)
# ΔΔ Ct=(Δ Ct of target sample)−(Δ Ct of reference sample)
# Relative expression level of target gene of target sample to that of reference sample=2 (^−ΔΔ^Ct)
molecule,measurement,setting,value
"BMP-2: osteogenic factor (Bone morphogenetic protein 2), a cytokine known for potent bone formation promoting action; positive control (protein, UniProt P12643 283-396, looked up) Bone morphogenetic protein 2: QAKHKQRKRLKSSCKRHPLYVDFSDVGWNDWIVAPPGYHAFYCHGECPFPLADHLNSTNHAIVQTLVNSVNSKIPKACCVPTELSAISMLYLDENEKVVLKNYQDMVVEGCGCR",effect of promoting ALP activity in presence of Dorsomorphin,[1]; Dorsomorphin 1 μM,diminished
same,effect of promoting ALP activity in presence of Noggin,[1]; Noggin 10 ng/ml,diminished
same,expression of ALP gene,[2]; FIG. 5A,increased
same,expression of osteocalcin gene,[2]; FIG. 5B,increased
same,expression of Runx 2 gene,[2]; FIG. 5C,increased
same,expression of Osterix gene,[2]; FIG. 5D,increased
